Legend:
[1] = cited from earlier work
[2] = human urine, occupational exposure to non-ferrous metal smelting; 77 of 100 cases with total arsenic exceeding warning line 0.032 mg/L

Compound	pka [1]	arithmetic mean value of concentration in urine [2] [µg/L]	concentration range in urine [2] [ng/mL]	median concentration in urine [2] [µg/L]
C[As](=O)(O)O	4.6			
Arsenic betaine		3.76 ± 10.4	0 to 82.9	0.817

From patent US20250110108A1 (priority 2022, published 2025)
